Measurements reported in PubChem BioAssay AID624377 (The Scripps Research Institute Molecular Screening Center, 2012).
Only a part is listed here, and it is no random draw. Some structures show a salt or complex split into parts, the way the source records it. The source made the active and inactive calls. Rule as the data show it: active = inhibition above about 25%; inactive = the rest.

Amino acid sequences for entries named in this document (tags omitted). Residues count along the entry.
UniProt Q9ULH1, 325-724 limits assumed: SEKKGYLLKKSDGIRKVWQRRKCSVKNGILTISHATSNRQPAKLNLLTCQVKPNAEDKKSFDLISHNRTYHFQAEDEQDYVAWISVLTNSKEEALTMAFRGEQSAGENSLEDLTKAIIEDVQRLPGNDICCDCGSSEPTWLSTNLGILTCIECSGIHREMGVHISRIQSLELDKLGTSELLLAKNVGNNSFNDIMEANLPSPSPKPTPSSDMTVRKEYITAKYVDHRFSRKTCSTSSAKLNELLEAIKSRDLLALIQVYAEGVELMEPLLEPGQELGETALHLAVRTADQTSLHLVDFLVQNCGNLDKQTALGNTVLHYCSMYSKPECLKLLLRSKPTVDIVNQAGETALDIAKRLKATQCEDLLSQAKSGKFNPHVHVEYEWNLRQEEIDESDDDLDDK

target: Arf-GAP with SH3 domain, ANK repeat and PH domain-containing protein 1 (Homo sapiens) (UniProt Q9ULH1); assay: blockers of ASAP1-stimulated ARF1 GTP hydrolysis – biochemical, fluorescence polarization, primary screen (AID 624377); settings: GDP FP detection, at 16.5 µM, hits give high values;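 also: 0% = vehicle with enzyme and substrate and 100% = no enzyme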

Question: With CCOC(=O)c1ccc(NP(C)(=O)Oc2ccc(Cl)cc2)cc1 (stereo not given) as the compound, how does the inhibition read?
Answer: Its inhibition is inactive: -11.4%.

Question: How did the inhibition turn out when CP(=O)(OC12CC3CC(CC(C3)C1)C2)OC12CC3CC(CC(C3)C1)C2 was run?
Answer: The inhibition was inactive: -9.92%.

Question: Which inhibition does the source give for Nc1ccc2c(ccc3cccnc32)n1.O=[N+]([O-])c1cc([N+](=O)[O-])c(O)c([N+](=O)[O-])c1 here?
Answer: The inhibition was inactive: -6.35%.

Question: O=C(OCCCN1CCCC1)C(O)(c1ccccc1)C1CCCCC1 (stereo not given) was tested. Which inhibition did it give?
Answer: The inhibition was inactive: 4.37%.

Question: How did the inhibition turn out when COc1ccccc1OP(C)(=O)Nc1c(C)n(C)n(-c2ccccc2)c1=O (stereo not given) was run?
Answer: Its inhibition is inactive: 1.93%.

Question: Which inhibition does the source give for CCc1ccc(OP(C)(=O)Nc2cccnc2)cc1 (stereo not given) here?
Answer: Its inhibition is inactive: -3.92%.

Question: CP(=O)(Oc1ccccc1)N1CCOC1=O (stereo not given) was tested. Which inhibition did it give?
Answer: The inhibition was inactive: -10.5%.

Question: Which inhibition does the source give for COc1ccc(OP(C)(=O)Nc2ccc(Br)cc2)cc1 (stereo not given) here?
Answer: Its inhibition is inactive: -5.41%.

Question: How did the inhibition turn out when CCN(CC)CC(O)COC(=O)C(O)(c1ccccc1)C1CCCCC1 (stereo not given) was run?
Answer: The inhibition was inactive: 5.64%.

Question: For CN(C)C(=O)c1c([N+](=O)[O-])cc([N+](=O)[O-])cc1[N+](=O)[O-], which inhibition is on record?
Answer: The inhibition was inactive: 12.5%.

Question: For CC(C)(C)c1ccc(OP(C)(=O)O)cc1, which inhibition is on record?
Answer: The inhibition was inactive: 4.07%.

Question: How did the inhibition turn out when COc1ccccc1OP(C)(=O)Nc1ccccc1Br (stereo not given) was run?
Answer: Its inhibition is inactive: -15.5%.

Question: CP(=O)(Nc1ccc(Cl)cc1)Oc1ccc(F)cc1 (stereo not given) was tested. Which inhibition did it give?
Answer: Its inhibition is inactive: 22.1%.

Question: Which inhibition does the source give for CCOP(C)(=S)SCC(=O)NC(C)(CC)C(=O)O (stereo not given) here?
Answer: Its inhibition is inactive: 8.71%.

Question: With CCOP(=O)(CC)OCC as the compound, how does the inhibition read?
Answer: Its inhibition is inactive: 2.16%.

Question: For CP(=O)(Nc1ccc(SC(F)(F)F)cc1)Oc1ccc(F)cc1 (stereo not given), which inhibition is on record?
Answer: Its inhibition is inactive: -2.88%.

Question: With Cc1ccccc1NP(C)(=O)Nc1ccccc1C as the compound, how does the inhibition read?
Answer: Its inhibition is inactive: 8.96%.

Question: How did the inhibition turn out when O=[N+]([O-])c1cc([N+](=O)[O-])c(C(F)(F)F)c([N+](=O)[O-])c1O was run?
Answer: The inhibition was inactive: 8.21%.

Question: For CP(=O)(Nc1ccc2c(c1)OCCO2)Oc1ccccc1 (stereo not given), which inhibition is on record?
Answer: The inhibition was inactive: -6.44%.

Question: Which inhibition does the source give for CN(C)CCOC(=O)C(O)(c1ccccc1)C1CCCCC1 (stereo not given) here?
Answer: Its inhibition is inactive: 10.3%.

Question: How did the inhibition turn out when COc1ccc(NP(C)(=O)Oc2ccccc2OC)cc1 (stereo not given) was run?
Answer: Its inhibition is inactive: 11.9%.

Question: With COc1ccc(OP(C)(=O)Nc2cccc(Br)c2)cc1 (stereo not given) as the compound, how does the inhibition read?
Answer: Its inhibition is inactive: 4.08%.

Question: Which inhibition does the source give for Cc1c(C(c2ccc3c(c2)OCO3)c2c(C)n(C)n(-c3ccccc3)c2=O)c(=O)n(-c2ccccc2)n1C.O=[N+]([O-])c1cc([N+](=O)[O-])c(O)c([N+](=O)[O-])c1 here?
Answer: Its inhibition is inactive: 0.72%.

Question: O=[N+]([O-])c1ccc(OP2(=O)COCCO2)cc1 (stereo not given) was tested. Which inhibition did it give?
Answer: The inhibition was inactive: -1.69%.

Question: O=[N+]([O-])c1cc([N+](=O)[O-])c(NCC2CCS(=O)(=O)C2)c([N+](=O)[O-])c1 (stereo not given) was tested. Which inhibition did it give?
Answer: The inhibition was inactive: -4.5%.

Question: For Cc1cc(-c2cccc3ccccc23)c(C)cn1.O=[N+]([O-])c1cc([N+](=O)[O-])c(O)c([N+](=O)[O-])c1, which inhibition is on record?
Answer: The inhibition was inactive: -4.42%.

Question: Which inhibition does the source give for CCOC(=O)c1ccc(NP(C)(=O)Oc2ccc(F)cc2)cc1 (stereo not given) here?
Answer: Its inhibition is inactive: 11.3%.

Question: How did the inhibition turn out when COc1ccc(OP(C)(=O)Nc2ccc(SC(F)(F)F)cc2)cc1 (stereo not given) was run?
Answer: Its inhibition is inactive: 17.9%.

Question: With CCN(CC)CCCNc1ccccc1[N+](=O)[O-].O=[N+]([O-])c1cc([N+](=O)[O-])c(O)c([N+](=O)[O-])c1 as the compound, how does the inhibition read?
Answer: The inhibition was inactive: -2.41%.

Question: For CP(=O)(Nc1ccccc1)Oc1ccc(F)cc1 (stereo not given), which inhibition is on record?
Answer: The inhibition was inactive: -11.3%.

Question: Which inhibition does the source give for O=[N+]([O-])c1cc([N+](=O)[O-])c(OC2CCCCC2O)c([N+](=O)[O-])c1 (stereo not given) here?
Answer: Its inhibition is inactive: -2.83%.

Question: With CCCCCOc1ccc(NP(C)(=O)Oc2ccc(Cl)cc2Cl)cc1 (stereo not given) as the compound, how does the inhibition read?
Answer: Its inhibition is inactive: 16.9%.

Question: For Cc1c([N+](=O)[O-])cc([N+](=O)[O-])c(Br)c1[N+](=O)[O-], which inhibition is on record?
Answer: The inhibition was inactive: 0.3%.

Question: Which inhibition does the source give for CCN(CC)CCCOC(=O)C(O)(c1ccccc1)C1CCCCC1 (stereo not given) here?
Answer: Its inhibition is inactive: -1.68%.

Question: For CP(=O)(Nc1ccccc1F)Oc1ccccc1 (stereo not given), which inhibition is on record?
Answer: Its inhibition is inactive: 6.22%.

Question: How did the inhibition turn out when CC(C)c1ccc(OP(C)(=O)Nc2ccc(SC(F)(F)F)cc2)cc1 (stereo not given) was run?
Answer: Its inhibition is inactive: 0.69%.

Question: How did the inhibition turn out when O=[N+]([O-])c1cc([N+](=O)[O-])c(Nc2ccc(Cl)cc2)c([N+](=O)[O-])c1 was run?
Answer: Its inhibition is inactive: -0.9%.

Question: How did the inhibition turn out when COc1ccc2c(c1O)-c1c(O)c(OC)cc3c1[C@H](C2)[N+](C)(C)CC3.O=[N+]([O-])c1cc([N+](=O)[O-])c([O-])c([N+](=O)[O-])c1[O-] was run?
Answer: The inhibition was inactive: 11.4%.

Question: Which inhibition does the source give for O=C(OC1CN2CCC1CC2)c1ccc([N+](=O)[O-])cc1 (stereo not given) here?
Answer: Its inhibition is inactive: 9.62%.

Question: Which inhibition does the source give for O=C(OCCN1CCN(CCOCc2ccccc2)CC1)C(O)(c1ccccc1)c1ccccc1 here?
Answer: The inhibition was inactive: -6.12%.
